Test results: article PMC5039417, “Aberrant Glycosylation of Anchor-Optimized MUC1 Peptides Can Enhance Antigen Binding Affinity and Reverse Tolerance to Cytotoxic T Lymphocytes” (Biomolecules, 2016)

Target: HLA-A*0201 molecules (Homo sapiens, UniProt P04439, D140Y/D185E/D98H/E176V/E277Q/G131W/G231S/I119V/I121R/I166T/I218V/L300P/L318F/N151K/N90K/P208A/P217A/Q86G/Q94H/R138H/R169H/T345S)
Assay: Competitive peptide inhibition assay (F1-peptide displacement on T2 cells)
Conditions: scored from IC50 in the competition assay on T2 cells

Sequence: ALGSTAPPV [P9, reference compound]
- Affinity class of binder to HLA-A*0201: high (“high affinity binders” with IC50 of <5 μg/mL)
